Compound activity: PubChem, National Center for Advancing Translational Sciences (NCATS)
Most compounds without a hit are left out; they make up all but 13% or so of the library.
miR-21 reporter: miR-21 reporter, rising signal; HeLa miR-21 FLuc reporter, luciferase, 48 h; Potency, µM (doses to about 38.3 µM), for inactives: at the highest dose reporter change, positive = more light; 340,000 tested, under 10 active; AID 2288; active = well fitted rising curve with a large enough effect; inconclusive = small, poorly fitted or top-dose-only effect; inactive = no such curve, though single readings can be large or run the other way;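 further: % of control where 0% means no effect; miR-21 action dims this reporter so a rising signal means less miR-21 action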
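HeLa cells endogenously expressing miR-21, stably carrying CMV-driven firefly luciferase with a downstream miR-21 binding site, 2000 cells/well. Titrations up to approximately 40 uM, 48 hours; luciferase luminescence read.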
Lamin A splicing: modulators of lamin A splicing; HeLa LMNA splicing GFP/RFP minigene ratio, 48 h; Potency, µM (doses to about 46.1 µM), for the others: at the top dose ratio change, negative = inhibition, hits mostly inhibitors; AID 1487; 200,000 compounds, 0.01% hits; active = well fitted inhibition curve with a large enough effect in the signal ratio, with a control signal flat, not every such curve was filed as active; inconclusive = small, poorly fitted or top-dose-only effect, or effect the other way, or a change in a side signal; the % refers to the signal ratio; also: potency is read from the fitted curve at half-maximal effect; % is scaled to controls: 0 for no effect and ±100 for the full control effect
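Read-out is the ratio of GFP to DsRed2 object intensity, acquired by 488 nm laser-scanning cytometry on HeLa lamin A-EGFP minigene reporter cells. Compound incubation 48 hrs at 37 °C in Opti-MEM with 2% FBS; DMSO 0.5% final.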
ALDH1A1 block: inhibitors of human aldehyde dehydrogenase 1A1; 220,000 compounds, 7.3% hits; Potency, µM (top dose mostly 75.3 µM), for inactives: at the top dose activity, negative = inhibition, actives largely listed as inhibitors; P00352; Purified ALDH1A1, NADH fluorescence, propionaldehyde substrate; active = well fitted inhibition curve with a large enough effect, not every such curve was filed as active; inconclusive = small, poorly fitted or top-dose-only effect, or another doubt; inactive = no such curve, though single readings can be large or run the other way;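 also: potency is read from the fitted curve at half-maximal effect; plate controls were no enzyme wells and a reference inhibitor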
G9a block: G9a (human) methyltransferase inhibition; Q96KQ7; G9a H3K9 monomethylation, AlphaScreen, 2 h; Potency, µM (doses to about 102 µM), for the others: top-dose activity, negative = inhibition, hits mostly inhibitors; 350,000 compounds, 8.8% hits; AID 504332; also: potency is read from the fitted curve at half-maximal effect; % is scaled to controls: 0 for no effect and ±100 for the full control effect; nearly all actives have a fitted effect of over 75% in size
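G9a (20 nM) was preincubated 15 min with compound, then reacted 2 h at room temperature with 500 nM biotin-H3K9 peptide and 20 µM SAM. Monomethyl-H3K9 detected by AlphaScreen using anti-H3K9me1 antibody.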
Sfp inh: qHTS Assay for Inhibitors of Bacillus subtilis Sfp phosphopantetheinyl transferase (PPTase) | 4'-phosphopantetheinyl transferase ffp (Bacillus subtilis), Q9F4F7 | AID 1490, 2009 | actives 3.5% (n = 310,000) | Biochemical Sfp PPTase activity, qHTS | Potency, µM, for inactives: max response, negative = inhibition, most hits filed as inhibitors; active = well fitted inhibition curve with a large enough effect; inconclusive = small, poorly fitted or top-dose-only effect, or another doubt; inactive = no such curve, though single readings can be large or run the other way;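 also: the enzyme is Sfp with the accession as filed and its product quenches rhodamine fluorescence; potency is read from the fitted curve at half-maximal effect; 0% = enzyme reaction without inhibitor and -100% = no enzyme wells; top concentration of the series not given in the record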
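Fluorescence-quenching assay with 15 nM Sfp, 5 uM rhodamine-CoA and 12.5 uM BHQ-2-labelled ybbR peptide in pH 7.6 Hepes/MgCl2 buffer. Enzyme was pre-incubated with compound for 15 min at room temperature. Rate was taken from the 30-min fluorescence change (525/598 nm).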
KDM4E inh: JMJD2E (human) inhibition. B2RXH2. JMJD2E catalytic domain, FDH-coupled NADH fluorescence (FDH is formaldehyde dehydrogenase). Potency, µM (highest dose often 57.1 µM), without a hit: at the top dose activity change, negative = inhibition, actives largely listed as inhibitors. 230,000 compounds, 1.6% hits; active = well fitted inhibition curve with a large enough effect, not every such curve was filed as active; inconclusive = small, poorly fitted or top-dose-only effect, or another doubt; inactive = no such curve, though single readings can be large or run the other way;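 also: potency is read from the fitted curve at half-maximal effect; 0% = wells with enzyme and -100% = buffer wells without enzyme; nearly all actives have a fitted effect of over 50% in size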
* = called active by the depositor; ? = inconclusive; / = no result given; [ ] = dose if it differs, or a comment. Unless noted, calls follow the shape of the dose curve; as a rule, active = well fitted curve in the direction sought with a large enough effect; inconclusive = small, poorly fitted or top-dose-only effect, or another doubt; inactive = no such curve, though single readings can be large; an effect the other way counts as inactive or inconclusive.

Start of the data: the first 4 records (preview)
SMILES	miR-21 reporter	Lamin A splicing	ALDH1A1 block	G9a block	Sfp inh	KDM4E inh
c1ccc(N2CCN(c3nc4cc5c(cc4s3)OCO5)CC2)cc1	-39%	-26%	20µM*	?	45µM*	-5%
c1ccc2c(c1)CCN(c1nc3cc4c(cc3s1)OCO4)C2	-32%	?	25µM*	3.2µM*	?	18%
CC(=O)Nc1nc2cc3c(cc2s1)OCO3	-38%	-6%	16%	18%	7%	1%
c1c2c(cc3sc(N4CCCCC4)nc13)OCO2	2%	?	22µM*	10µM*	-26%	-4%

The whole of this part, from the start:
SMILES	miR-21 reporter	Lamin A splicing	ALDH1A1 block	G9a block	Sfp inh	KDM4E inh
c1ccc(N2CCN(c3nc4cc5c(cc4s3)OCO5)CC2)cc1	-39%	-26%	20µM*	?	45µM*	-5%
c1ccc2c(c1)CCN(c1nc3cc4c(cc3s1)OCO4)C2	-32%	?	25µM*	3.2µM*	?	18%
CC(=O)Nc1nc2cc3c(cc2s1)OCO3	-38%	-6%	16%	18%	7%	1%
c1c2c(cc3sc(N4CCCCC4)nc13)OCO2	2%	?	22µM*	10µM*	-26%	-4%
Brc1ccc2nc(N3CCN(c4ccccc4)CC3)sc2c1	-49%	/	6%	-8%	5%	9%
c1c2c(cc3sc(N4CCOCC4)nc13)OCO2	-22%	16%	10µM*	-50%[2.33 µM]	35µM*	-23%
O=C(CCn1cccn1)N1CCCC(N2CCN(c3cccc(Cl)c3)CC2)C1 (stereo not drawn)	-6%	/	/	5%	12%	/
O=C1NCCN/C1=C\C(=O)c1ccccc1	-33%	0%	9%	1%	9%	0%
O=C1NCCN/C1=C\C(=O)c1ccc(Br)cc1	-49%	/	/	50µM*	1%	12%
O=C1OCCN/C1=C\C(=O)c1ccc(Cl)cc1	0%	/	-10%	56µM*	5%	6%
COc1ccccc1NC(=O)C(C)OC(=O)CSCC(=O)Nc1cc(C)on1 (stereo not drawn)	/	/	/	31%[12.7 µM]	/	/
CC1(C)C(=O)Nc2ccccc2N1C(=O)COC(=O)c1cc([N+](=O)[O-])ccc1N	1%	-20%	?	20µM*	16%	8%
CC1(C)C(=O)Nc2ccccc2N1C(=O)COC(=O)c1cc(S(C)(=O)=O)ccc1Cl	/	/	/	-11%	/	/
Cc1ccccc1OCC(=O)NC1=NCCS1	-54%	12%	-11%	28µM*	15%	20%
COc1ccc(N2CCN(S(=O)(=O)CCNC(=O)COc3ccccc3F)CC2)cc1	-3%	7%[46 µM]	/	?	/	/
Cc1ccc(OCC(=O)NC2=NCCS2)cc1	-17%	10%	2%	/	11%	-6%
COc1ccc(N2CCN(S(=O)(=O)CCNC(=O)COc3ccccc3C)CC2)cc1	/	/	/	45µM*	/	/
COc1ccccc1OCC(=O)Nc1ccc(N2CCCCC2)cc1	-22%	-29%[46 µM]	-13%	22µM*	-23%	-9%
Cc1cccc(OCC(=O)Nc2ccc(N3CCCC3)cc2)c1C	-7%	6%	13µM*	28µM*	?	-26%
CCOc1ccccc1OCC(=O)Nc1ccc(N2CCCCC2)cc1	-2%	?	-5%	?	14%	?
COc1cc2c(cc1OC)CN(C(=O)c1cccc([N+](=O)[O-])c1)CC2	5%	/	/	19%[12.7 µM]	18%	-6%
CCCN1CCN(CC2=C(C(=O)OCC)C(c3cccc(OC)c3OC)NC(=O)N2)CC1 (stereo not drawn)	3%	/	/	3%[59 µM]	/	/
COc1ccccc1OCCCC(=O)Nc1ccc(N2CCOCC2)cc1	-8%	/	-6%	?	-6%	-2%
COc1cc(Cl)ccc1NC(=O)COc1ccccc1C(=O)N1CCN(c2ccc(O)cc2)CC1	13%	?	?	10µM*	?	-15%
Cc1ccccc1OCCCC(=O)Nc1ccc(N2CCOCC2)cc1	-8%	-5%	?	45µM*	-5%	-6%

An excerpt from above in order of molecular weight, smallest number first:
SMILES	miR-21 reporter	Lamin A splicing	ALDH1A1 block	G9a block	Sfp inh	KDM4E inh
COc1ccccc1OCCCC(=O)Nc1ccc(N2CCOCC2)cc1	-8%	/	-6%	?	-6%	-2%
COc1ccc(N2CCN(S(=O)(=O)CCNC(=O)COc3ccccc3C)CC2)cc1	/	/	/	45µM*	/	/
COc1ccc(N2CCN(S(=O)(=O)CCNC(=O)COc3ccccc3F)CC2)cc1	-3%	7%[46 µM]	/	?	/	/

Later entries:
SMILES	miR-21 reporter	Lamin A splicing	ALDH1A1 block	G9a block	Sfp inh	KDM4E inh
Cc1ccc(C(=O)N2CCN(c3ccc(NC(=O)COc4ccccc4C)cc3)CC2)cc1	30%	/	?	40µM*	-18%	5%
CCC(=O)N1CCN(c2ccc(NC(=O)COc3ccccc3Cl)cc2)CC1	?	?	-9%	16µM*	10%	-5%
Cc1cc(Cl)ccc1OCC(=O)Nc1ccccc1C(=O)N1CCOCC1	2%	/	/	/	12%	/
CN1CCN(c2ccc(NC(=O)COc3ccccc3Cl)cc2)CC1	-25%	-18%	-4%	?	4%	1%
CN(Cc1ccco1)c1ncnc2ccc(-c3cccc(C#N)c3)cc12	/	24%	?	/	?	?
O=C(NCc1ccco1)c1ccccc1SCC(=O)N1CCCC1	/	/	/	11%[2.33 µM]	/	/
COc1ccc(C2/C(=C(/O)c3ccc(C)cc3)C(=O)C(=O)N2C)c(OC)c1 (stereo not drawn)	-3%	/	/	/	6%	/
Cc1cccc(OCC(=O)Nc2ccc3oc(=O)ccc3c2)c1C	-1%	/	/	50µM*	5%	/
Cc1c(C(=O)N(Cc2ccco2)Cc2ccccc2Cl)oc2ccc(F)cc12	-5%	/	/	35%[59 µM]	/	/
O=C(O)c1cccc(N/N=C/c2cn(-c3ccccc3)nc2-c2cccs2)c1	-39%	-20%[46 µM]	?	35µM*	-8%	?
NS(=O)(=O)c1ccc(N/N=C/c2cn(-c3ccccc3)nc2-c2cccs2)c([N+](=O)[O-])c1	-14%	/	?	?	3%	0%
NC(=O)N/N=C/c1cn(-c2ccccc2)nc1-c1cccs1	-53%	-5%[46 µM]	?	-34%	-3%	-23%
NS(=O)(=O)c1ccc(N/N=C/c2cn(-c3ccccc3)nc2-c2cccs2)cc1	-25%	-4%	?	10µM*	10%	?
O=S(=O)(c1ccc(Cl)cc1)N1CCN(CCc2ccncc2)CC1	-2%	/	/	11%[59 µM]	2%	/
O=C(NCCc1ccco1)C(=O)NCC1OCCCN1S(=O)(=O)c1ccccc1 (stereo not drawn)	-3%	/	/	-9%	11%	/
CCOC(=O)c1cc(-c2ccc(C)cc2)nn1Cc1ccccc1	-50%	/	/	136%[59 µM]	/	/
COc1cccc(NC(=S)NNC(=O)c2ccccc2OC(F)F)c1	-18%	?	25µM*	?	17%	9%
O=C(NNC(=S)Nc1cccc(Cl)c1)c1ccccc1OC(F)F	-13%	?	25µM*	?	15%	-9%
Cc1nc(S/C(=C/c2ccc(-c3cccc(Cl)c3)o2)C(=O)O)n[nH]1	-1%	1%	7%	21%[59 µM]	45µM*	3%
CC(C)(C)c1ccc(CCC2OCC(C[N+]3(C)CCOCC3)O2)cc1 (stereo not drawn)	3%	/	/	50µM*	-19%	-5%
COc1cc(C(=O)N/N=C/c2sc(N3CCOCC3)nc2-c2ccccc2)cc(OC)c1OC	0%	/	?	6%	19%	?
CCn1c(CSc2nccn2C)nc2cc(C(=O)O)ccc21	5%	1%	?	-38%[12.7 µM]	56µM*	?
Cc1ccc(NC(=O)CSc2nc(=O)n(CCN3CCOCC3)c3c2CCC3)cc1Cl	4%	6%[46 µM]	/	-5%[59 µM]	/	/
Cc1c(CN2CCN(CC(C)(C)C)C(CCO)C2)[nH]c2ccccc12 (stereo not drawn)	0%	/	/	71µM*	2%	/
CCOc1ccc(CN2CCN(Cc3[nH]c4ccccc4c3C)CC2CCO)cc1 (stereo not drawn)	3%	-20%[46 µM]	-6%	6%[12.7 µM]	16%	-13%
